Columns and labels:
Experiment in all cases: Fluridone enzyme inhibition assay, non-His-tagged PDS (Table 1)
Format in all cases: biochemical
[1] = target: Hydrilla PDS Arg^304 → Alanine (Hydrilla verticillata, UniProt Q66PY0, R304A); conditions: read-out: I50, construct not in frame with LacZalpha-ccdB
Method: (§1) The expression constructs in Table 1 were derived from an original clone of the susceptible PDS gene from Hydrilla and then the Arg^304 was mutated to the listed amino acid. Expression was under the control of the lac promoter […] with the initiation codon of the LacZalpha-ccdB gene in the pCR4-TOPO vector (Invitrogen Inc., CA, Cat. #K4575-01).
(§2) All mutagenesis was performed, unless stated otherwise, using the TOPO-vector containing the wildtype (H4) PDS-sequence, which was extracted from an overnight culture with the Qiagen Plasmid Prep Kit as described above. The amount of the extracted plasmid was diluted to 10 ng/μl and used as template in a mutagenesis-procedure using the QuikChange Site-directed Mutagenesis Kit (Stratagene, Calif., #200518). The design of the mutagenesis-primers was conducted according to the manufacturers protocol to enable the specific change of Arg^304-codon to code for the desired amino acid. Primers (purchased from MWG-Biotech) and their introduced amino acid change are listed below with the changed codon underlined:
(§3) The reactions were performed according to the manufacturers protocol. Reactions were set up in MicroAmp-tubes on ice with 38 μl ddH2O, 5 μl 10× reaction buffer, 2 μl plasmid (10 ng/μl), 1.25 μl forward-mutagenesis primer (100 ng/μl), 1.25 μl of reverse mutagenesis primer (100 ng/μl), 1 μl dNTP-mix and 1 μl PfuTurboDNA polymerase (2.5 U/μl). The reactions were placed in a PE 9700 thermal cycler and heated to 95° C. for 30 sec followed by 12 rounds at 95° C. for 30 sec, 55° C. for 1 min and 68° C. for 12 min. The PCR was followed by a DpnI-digestion and transformation in XL1-Blue supercompetent cells as described in the manual. 4-6 resulting colonies were grown overnight in LB-medium with kanamycin and plasmid DNA was isolated as described above. The plasmid was used as template for sequencing with M13 and internal PDS-primers as described above on a LiCOR-system. Sequences were assembled and analyzed using Seqman. Introduced mutations were identified and plasmids carrying the desired mutation(s) were transferred into competent TOP10-cells, using the transformation protocol from the TOPO TA Cloning Kit. Resulting colonies were grown overnight in Wu-broth with kanamycin, aliquoted and stored at −80° C. until further use. 1 ml of Wu-cultures was used to start 1-L LB-cultures with kanamycin as described before, to express active PDS-enzyme for testing as described.
(§4) Phytoene desaturase activity and its inhibition by herbicides was determined using an in vitro system using components derived from the in vivo production of phytoene and phytoene desaturase proteins. All mutations described in Examples 3 and 4 were tested. […] The clones were used for the heterologous expression of Hydrilla-PDS-enzyme. In particular, bacterial cultures were grown from single colonies overnight in Wu-broth (6.27 g/L K2HPO4, 1.8 g/L KH2PO4, 0.5 g/L Na-citrate, 0.9 g/L (NH4)2SO4, 10 g/L tryptone, 5 g/L yeast extract, 10 g/L NaCl, 44 ml/L glycerol, 0.1 mM MgSO4, pH 7.2) with kanamycin. 1-mL was aliquoted in centrifuge tube and stored at −80° C. For expression, 1 L LB-medium with kanamycin was inoculated with 1-mL Wu-culture and grown for 24 h at 37° C. to stationary phase with shaking at 200 rpm. The cells were collected by centrifugation at 2000×g. All of the following steps were done at 4° C. unless otherwise noted. Active soluble PDS enzyme was extracted by lysing the transformed E. coli cells using a French Press at 20,000 psi in assay buffer consisting of 100 mM Tris-HCl, pH 7.2, 10 mM magnesium-chloride, 0.1 mM NADP, 0.1 mM FAD, 10 mM cysteine, 5 mM DTT, 1 mM aminocaproic acid, and 1 μg/ml leupeptin. The soluble fraction containing PDS activity was obtained by centrifugation for 10 min at 1200×g. After 24 h they were centrifuged down and used in PDS enzyme activity assays as described below.

The chains behind the UniProt entries cited, without tags or fusion partners. Residues count along the entry.
UniProt Q66PY0, 1-580 R304A: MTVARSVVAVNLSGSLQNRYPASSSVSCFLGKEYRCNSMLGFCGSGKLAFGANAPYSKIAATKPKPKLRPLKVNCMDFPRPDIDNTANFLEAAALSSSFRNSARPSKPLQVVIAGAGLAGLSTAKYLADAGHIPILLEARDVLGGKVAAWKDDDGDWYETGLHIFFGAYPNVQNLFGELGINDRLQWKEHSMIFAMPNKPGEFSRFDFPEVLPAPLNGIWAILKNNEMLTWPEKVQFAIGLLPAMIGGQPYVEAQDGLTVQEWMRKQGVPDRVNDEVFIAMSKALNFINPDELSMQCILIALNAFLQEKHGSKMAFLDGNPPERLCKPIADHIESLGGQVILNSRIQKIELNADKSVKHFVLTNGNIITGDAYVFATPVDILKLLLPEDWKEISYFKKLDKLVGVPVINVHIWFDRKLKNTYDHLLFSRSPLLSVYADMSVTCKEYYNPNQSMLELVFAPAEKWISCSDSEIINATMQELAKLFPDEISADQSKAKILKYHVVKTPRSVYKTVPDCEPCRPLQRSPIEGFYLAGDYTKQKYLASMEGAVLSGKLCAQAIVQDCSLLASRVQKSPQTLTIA
UniProt Q66PY0, 1-580 R304T: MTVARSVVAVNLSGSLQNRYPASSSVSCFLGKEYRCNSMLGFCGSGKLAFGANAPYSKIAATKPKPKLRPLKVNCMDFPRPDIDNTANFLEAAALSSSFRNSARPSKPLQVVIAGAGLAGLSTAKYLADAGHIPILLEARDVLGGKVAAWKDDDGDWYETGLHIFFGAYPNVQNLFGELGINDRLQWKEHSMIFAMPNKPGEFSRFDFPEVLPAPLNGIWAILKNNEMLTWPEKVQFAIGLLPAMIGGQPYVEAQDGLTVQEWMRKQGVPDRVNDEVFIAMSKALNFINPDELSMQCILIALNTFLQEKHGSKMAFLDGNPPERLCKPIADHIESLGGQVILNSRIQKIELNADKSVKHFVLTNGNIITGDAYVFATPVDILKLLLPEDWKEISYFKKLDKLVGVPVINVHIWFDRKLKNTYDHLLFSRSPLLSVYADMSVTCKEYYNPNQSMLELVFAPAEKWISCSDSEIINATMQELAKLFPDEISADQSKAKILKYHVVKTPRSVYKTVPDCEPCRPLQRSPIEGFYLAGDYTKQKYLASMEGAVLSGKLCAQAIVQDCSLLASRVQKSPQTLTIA
UniProt Q66PY0, 1-580 R304Q: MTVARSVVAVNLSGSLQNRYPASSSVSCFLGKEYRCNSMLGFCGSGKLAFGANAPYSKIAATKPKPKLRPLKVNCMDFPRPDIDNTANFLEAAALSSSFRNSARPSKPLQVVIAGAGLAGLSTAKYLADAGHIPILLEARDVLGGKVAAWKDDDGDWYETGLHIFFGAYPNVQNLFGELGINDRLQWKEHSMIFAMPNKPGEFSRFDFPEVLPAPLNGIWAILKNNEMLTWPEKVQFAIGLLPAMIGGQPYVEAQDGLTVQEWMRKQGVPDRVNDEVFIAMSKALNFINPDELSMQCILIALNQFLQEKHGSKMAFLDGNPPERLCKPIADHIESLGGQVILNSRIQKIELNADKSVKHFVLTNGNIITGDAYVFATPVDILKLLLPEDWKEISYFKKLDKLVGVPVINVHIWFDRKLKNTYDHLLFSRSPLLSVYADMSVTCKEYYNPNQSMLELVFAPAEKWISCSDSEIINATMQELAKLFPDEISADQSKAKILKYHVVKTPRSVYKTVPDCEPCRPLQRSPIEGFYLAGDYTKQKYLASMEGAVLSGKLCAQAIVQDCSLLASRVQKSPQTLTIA
UniProt Q66PY0, 1-580 R304V: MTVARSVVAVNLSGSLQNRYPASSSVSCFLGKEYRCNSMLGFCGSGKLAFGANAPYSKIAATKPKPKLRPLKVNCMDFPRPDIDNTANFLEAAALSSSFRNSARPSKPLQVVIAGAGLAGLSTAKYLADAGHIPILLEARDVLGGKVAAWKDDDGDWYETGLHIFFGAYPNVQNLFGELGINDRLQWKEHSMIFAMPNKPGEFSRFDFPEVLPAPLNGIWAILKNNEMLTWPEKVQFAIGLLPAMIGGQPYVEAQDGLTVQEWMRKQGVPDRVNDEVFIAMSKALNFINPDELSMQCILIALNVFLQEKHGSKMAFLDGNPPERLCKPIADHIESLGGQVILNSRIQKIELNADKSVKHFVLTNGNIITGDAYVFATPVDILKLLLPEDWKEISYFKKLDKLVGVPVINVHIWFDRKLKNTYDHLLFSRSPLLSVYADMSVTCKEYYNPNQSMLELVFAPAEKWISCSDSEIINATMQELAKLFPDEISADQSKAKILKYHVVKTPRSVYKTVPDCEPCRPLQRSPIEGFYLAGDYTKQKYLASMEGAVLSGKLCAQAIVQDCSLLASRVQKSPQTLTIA
UniProt Q66PY0, 1-580: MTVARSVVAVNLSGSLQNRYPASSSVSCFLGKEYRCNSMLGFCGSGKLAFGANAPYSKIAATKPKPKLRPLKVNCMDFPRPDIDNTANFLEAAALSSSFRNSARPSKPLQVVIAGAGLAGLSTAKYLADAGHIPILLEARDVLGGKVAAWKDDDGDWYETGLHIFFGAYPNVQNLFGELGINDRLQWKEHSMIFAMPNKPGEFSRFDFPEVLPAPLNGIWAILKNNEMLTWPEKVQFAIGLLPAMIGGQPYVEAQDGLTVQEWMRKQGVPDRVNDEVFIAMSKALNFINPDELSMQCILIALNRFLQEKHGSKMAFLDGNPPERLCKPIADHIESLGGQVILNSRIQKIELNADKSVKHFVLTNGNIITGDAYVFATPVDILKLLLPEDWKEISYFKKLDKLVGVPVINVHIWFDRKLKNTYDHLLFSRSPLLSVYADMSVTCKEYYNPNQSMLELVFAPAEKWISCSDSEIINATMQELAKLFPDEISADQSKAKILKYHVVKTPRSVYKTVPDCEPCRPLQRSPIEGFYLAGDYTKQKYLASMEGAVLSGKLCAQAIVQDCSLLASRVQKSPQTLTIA
UniProt Q66PY0, 1-580 R304G: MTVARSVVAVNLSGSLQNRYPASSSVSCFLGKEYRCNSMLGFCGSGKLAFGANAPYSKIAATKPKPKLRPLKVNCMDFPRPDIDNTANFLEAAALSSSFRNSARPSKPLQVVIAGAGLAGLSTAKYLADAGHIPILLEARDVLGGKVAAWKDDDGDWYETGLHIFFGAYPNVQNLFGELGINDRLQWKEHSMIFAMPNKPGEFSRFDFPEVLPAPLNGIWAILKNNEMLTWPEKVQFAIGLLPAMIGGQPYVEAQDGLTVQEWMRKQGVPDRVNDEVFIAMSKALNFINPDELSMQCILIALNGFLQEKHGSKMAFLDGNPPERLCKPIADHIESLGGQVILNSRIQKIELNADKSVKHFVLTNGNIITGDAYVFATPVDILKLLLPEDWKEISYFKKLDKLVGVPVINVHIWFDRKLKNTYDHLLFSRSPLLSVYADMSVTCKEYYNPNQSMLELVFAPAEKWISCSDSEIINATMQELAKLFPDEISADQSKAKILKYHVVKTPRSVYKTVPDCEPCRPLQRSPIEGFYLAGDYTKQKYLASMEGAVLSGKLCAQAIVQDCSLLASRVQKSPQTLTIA
UniProt Q66PY0, 1-580 R304M: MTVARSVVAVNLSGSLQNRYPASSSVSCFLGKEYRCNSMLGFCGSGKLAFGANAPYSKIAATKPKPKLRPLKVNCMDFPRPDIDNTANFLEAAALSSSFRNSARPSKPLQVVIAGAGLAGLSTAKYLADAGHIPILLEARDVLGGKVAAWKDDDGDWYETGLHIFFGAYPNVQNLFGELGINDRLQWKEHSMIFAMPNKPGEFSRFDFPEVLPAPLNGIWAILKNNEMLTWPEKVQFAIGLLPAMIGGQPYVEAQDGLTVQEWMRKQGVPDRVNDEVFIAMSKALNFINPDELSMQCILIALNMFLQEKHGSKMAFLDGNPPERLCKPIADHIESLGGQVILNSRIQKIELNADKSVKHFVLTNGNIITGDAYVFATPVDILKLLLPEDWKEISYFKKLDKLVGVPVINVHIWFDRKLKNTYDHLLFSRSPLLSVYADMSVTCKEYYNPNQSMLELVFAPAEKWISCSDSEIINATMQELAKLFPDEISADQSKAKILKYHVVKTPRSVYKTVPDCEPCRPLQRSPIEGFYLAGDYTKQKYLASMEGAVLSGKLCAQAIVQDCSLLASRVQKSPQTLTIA
UniProt Q66PY0, 1-580 R304E: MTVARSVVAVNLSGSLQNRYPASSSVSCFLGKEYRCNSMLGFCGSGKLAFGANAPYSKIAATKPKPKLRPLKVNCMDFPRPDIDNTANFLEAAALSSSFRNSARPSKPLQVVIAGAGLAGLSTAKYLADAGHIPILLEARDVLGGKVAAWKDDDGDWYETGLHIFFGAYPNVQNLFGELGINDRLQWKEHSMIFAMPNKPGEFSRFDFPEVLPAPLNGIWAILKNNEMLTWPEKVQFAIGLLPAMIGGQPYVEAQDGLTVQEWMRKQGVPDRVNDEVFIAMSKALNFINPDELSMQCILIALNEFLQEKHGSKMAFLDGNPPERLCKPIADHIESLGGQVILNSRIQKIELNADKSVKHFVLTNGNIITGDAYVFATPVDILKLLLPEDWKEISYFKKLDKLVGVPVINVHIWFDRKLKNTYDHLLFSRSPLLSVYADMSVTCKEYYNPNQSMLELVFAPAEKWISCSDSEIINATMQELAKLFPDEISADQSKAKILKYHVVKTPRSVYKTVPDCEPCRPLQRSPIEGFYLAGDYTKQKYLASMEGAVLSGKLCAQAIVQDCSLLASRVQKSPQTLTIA
UniProt Q66PY0, 1-580 R304K: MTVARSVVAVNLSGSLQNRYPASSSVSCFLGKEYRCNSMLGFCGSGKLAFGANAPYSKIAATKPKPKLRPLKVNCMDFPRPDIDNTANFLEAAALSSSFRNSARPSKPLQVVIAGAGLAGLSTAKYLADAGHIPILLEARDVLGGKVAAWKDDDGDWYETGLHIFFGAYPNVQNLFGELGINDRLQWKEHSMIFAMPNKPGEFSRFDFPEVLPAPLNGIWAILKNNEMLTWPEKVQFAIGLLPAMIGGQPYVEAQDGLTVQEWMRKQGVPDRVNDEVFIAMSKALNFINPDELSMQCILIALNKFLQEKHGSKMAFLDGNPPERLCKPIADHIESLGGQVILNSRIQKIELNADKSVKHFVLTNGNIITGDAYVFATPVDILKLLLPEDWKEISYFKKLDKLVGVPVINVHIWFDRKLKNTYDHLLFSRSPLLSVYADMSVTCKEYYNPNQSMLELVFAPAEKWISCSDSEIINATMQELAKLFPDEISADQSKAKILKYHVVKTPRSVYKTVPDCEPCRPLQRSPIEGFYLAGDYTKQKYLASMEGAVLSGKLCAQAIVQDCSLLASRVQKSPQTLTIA
UniProt Q66PY0, 1-580 R304D: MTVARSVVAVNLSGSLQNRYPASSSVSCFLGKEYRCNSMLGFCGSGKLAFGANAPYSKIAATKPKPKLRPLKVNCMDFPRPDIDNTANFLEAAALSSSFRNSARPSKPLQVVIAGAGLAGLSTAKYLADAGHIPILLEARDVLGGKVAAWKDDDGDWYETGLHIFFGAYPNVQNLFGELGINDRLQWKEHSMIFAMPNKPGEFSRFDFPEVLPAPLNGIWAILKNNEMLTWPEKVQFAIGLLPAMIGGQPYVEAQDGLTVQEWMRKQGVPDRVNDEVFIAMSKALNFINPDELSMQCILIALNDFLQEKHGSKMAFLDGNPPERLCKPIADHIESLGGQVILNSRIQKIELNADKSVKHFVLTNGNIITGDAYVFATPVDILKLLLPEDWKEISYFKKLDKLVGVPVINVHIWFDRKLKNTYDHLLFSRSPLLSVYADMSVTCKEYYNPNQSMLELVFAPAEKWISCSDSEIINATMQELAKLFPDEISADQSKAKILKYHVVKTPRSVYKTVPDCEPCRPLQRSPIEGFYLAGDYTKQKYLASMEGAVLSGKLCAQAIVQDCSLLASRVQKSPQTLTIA
UniProt Q66PY0, 1-580 R304L: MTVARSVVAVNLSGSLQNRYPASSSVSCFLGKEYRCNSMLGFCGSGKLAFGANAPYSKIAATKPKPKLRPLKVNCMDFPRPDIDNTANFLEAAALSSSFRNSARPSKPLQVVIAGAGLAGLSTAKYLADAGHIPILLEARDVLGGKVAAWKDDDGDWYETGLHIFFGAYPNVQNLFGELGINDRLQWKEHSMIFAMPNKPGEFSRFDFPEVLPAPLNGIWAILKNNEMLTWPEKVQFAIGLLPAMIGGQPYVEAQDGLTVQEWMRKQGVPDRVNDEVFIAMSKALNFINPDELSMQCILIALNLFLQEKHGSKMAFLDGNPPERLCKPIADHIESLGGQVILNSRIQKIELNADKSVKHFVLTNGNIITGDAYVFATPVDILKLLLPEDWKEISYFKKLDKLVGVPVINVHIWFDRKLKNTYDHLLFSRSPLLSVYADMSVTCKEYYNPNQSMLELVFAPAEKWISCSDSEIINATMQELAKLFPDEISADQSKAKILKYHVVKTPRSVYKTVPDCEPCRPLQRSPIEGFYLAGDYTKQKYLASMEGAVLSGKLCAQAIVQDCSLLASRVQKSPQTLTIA

[2] = target: Hydrilla PDS Arg^304 → Threonine (Hydrilla verticillata, UniProt Q66PY0, R304T); conditions: read-out: I50, construct not in frame with LacZalpha-ccdB
Method: as §1, §2, §3, §4

[3] = target: Hydrilla PDS Arg^304 → Glutamine (Hydrilla verticillata, UniProt Q66PY0, R304Q); conditions: read-out: I50, construct not in frame with LacZalpha-ccdB
Method: as §1, §2, §3, §4

[4] = target: Hydrilla PDS Arg^304 → Valine (Hydrilla verticillata, UniProt Q66PY0, R304V); conditions: read-out: I50, construct not in frame with LacZalpha-ccdB
Method: as §1, §2, §3, §4

[5] = target: Hydrilla PDS Arg^304 Arginine (wildtype) (Hydrilla verticillata, UniProt Q66PY0); conditions: Arginine at 304 (susceptible); construct not in frame with LacZalpha-ccdB; read-out: I50
Method: as §1, §2, §3, §4

[6] = target: Hydrilla PDS Arg^304 → Glycine (Hydrilla verticillata, UniProt Q66PY0, R304G); conditions: read-out: I50, construct not in frame with LacZalpha-ccdB
Method: as §1, §2, §3, §4

[7] = target: Hydrilla PDS Arg^304 → Methionine (Hydrilla verticillata, UniProt Q66PY0, R304M); conditions: read-out: I50, construct not in frame with LacZalpha-ccdB
Method: as §1, §2, §3, §4

[8] = target: Hydrilla PDS Arg^304 → Glutamic acid (Hydrilla verticillata, UniProt Q66PY0, R304E); conditions: read-out: I50, construct not in frame with LacZalpha-ccdB
Method: as §1, §2, §3, §4

[9] = target: Hydrilla PDS Arg^304 → Lysine (Hydrilla verticillata, UniProt Q66PY0, R304K); conditions: read-out: I50, construct not in frame with LacZalpha-ccdB
Method: as §1, §2, §3, §4

[10] = target: Hydrilla PDS Arg^304 → Aspartic acid (Hydrilla verticillata, UniProt Q66PY0, R304D); conditions: read-out: I50, construct not in frame with LacZalpha-ccdB
Method: as §1, §2, §3, §4

[11] = target: Hydrilla PDS Arg^304 → Leucine (Hydrilla verticillata, UniProt Q66PY0, R304L); conditions: construct not in frame with LacZalpha-ccdB, read-out: I50
Method: as §1, §2, §3, §4

[12] = target: Hydrilla PDS Arg^304 → Tyrosine (Hydrilla verticillata, UniProt Q66PY0, R304Y); conditions: read-out: I50, construct not in frame with LacZalpha-ccdB
Method: as §1, §2, §3, §4

Q: How did the IC50 [1] turn out when Fluridone was run?
A: Its IC50 is 4500 nM.

Q: What about the IC50 [2] of the same substance?
A: The IC50 was 10000 nM.

Q: What about the IC50 [3] of the same substance?
A: The IC50 was 3800 nM.

Q: What about the IC50 [4] of the same substance?
A: Its IC50 is 2200 nM.

Q: And the IC50 [5]?
A: Its IC50 is 200 nM.

Q: What about the IC50 [6] of the same substance?
A: The IC50 was 640 nM.

Q: What about the IC50 [7] of the same substance?
A: Its IC50 is 2300 nM.

Q: What about the IC50 [8] of the same substance?
A: Its IC50 is 310 nM.

Q: What about the IC50 [9] of the same substance?
A: Its IC50 is 1000 nM.

Q: What about the IC50 [10] of the same substance?
A: Its IC50 is 2000 nM.

Q: What about the IC50 [11] of the same substance?
A: The IC50 was 3200 nM.

Q: And the IC50 [12]?
A: The IC50 was 810 nM.

Source: patent US20110098180A1, “Herbicide-Resistant Plants, And Polynucleotides And Methods For Providing Same” (United States Department of Agriculture, priority 2002, published 2011)
